Key:
Integrin alpha-V/beta-3 [1] = target: T1, Integrin alpha-V/beta-3 (Homo sapiens, UniProt P05106+P06756); experiment: Inhibition of integrin alphavbeta3 (unknown origin)-mediated K562 cell adhesion to LAPb1 coated surface by fluorescence analysis; assay type: cell-based
Integrin alpha-V/beta-3 [2] = target: T1, Integrin alpha-V/beta-3; experiment: Inhibition of integrin alphavbeta3 (unknown origin) by Monsanto binding assay; assay type: protein-complex assay

Chains of the proteins cited; added tags and fusions are not shown. Residues count along the entry.
UniProt P05106, 27-788 limits assumed: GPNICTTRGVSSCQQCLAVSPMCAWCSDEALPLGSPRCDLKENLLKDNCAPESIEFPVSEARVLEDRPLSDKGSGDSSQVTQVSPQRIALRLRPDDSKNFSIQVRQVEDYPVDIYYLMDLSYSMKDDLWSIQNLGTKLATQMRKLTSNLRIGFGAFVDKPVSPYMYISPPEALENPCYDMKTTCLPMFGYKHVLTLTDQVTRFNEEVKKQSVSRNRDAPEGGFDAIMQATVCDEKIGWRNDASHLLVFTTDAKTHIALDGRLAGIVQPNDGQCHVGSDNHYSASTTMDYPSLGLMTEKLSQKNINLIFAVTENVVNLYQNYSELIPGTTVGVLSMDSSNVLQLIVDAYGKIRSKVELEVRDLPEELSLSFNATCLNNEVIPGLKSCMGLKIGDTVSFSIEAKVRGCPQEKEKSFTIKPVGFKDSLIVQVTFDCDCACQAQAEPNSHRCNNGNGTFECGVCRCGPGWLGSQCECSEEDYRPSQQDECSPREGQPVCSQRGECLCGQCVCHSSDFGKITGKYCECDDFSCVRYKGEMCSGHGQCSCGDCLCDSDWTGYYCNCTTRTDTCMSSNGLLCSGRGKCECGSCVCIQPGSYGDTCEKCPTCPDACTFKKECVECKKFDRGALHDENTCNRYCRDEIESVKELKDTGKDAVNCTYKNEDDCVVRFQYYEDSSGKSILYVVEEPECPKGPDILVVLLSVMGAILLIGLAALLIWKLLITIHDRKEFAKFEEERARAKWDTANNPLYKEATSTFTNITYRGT
UniProt P06756, 891-1048 limits assumed: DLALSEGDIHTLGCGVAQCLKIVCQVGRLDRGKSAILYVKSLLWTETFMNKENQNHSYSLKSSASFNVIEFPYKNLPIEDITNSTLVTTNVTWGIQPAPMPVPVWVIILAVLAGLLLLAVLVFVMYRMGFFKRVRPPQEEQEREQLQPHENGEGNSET
UniProt P06756, 31-889 limits assumed: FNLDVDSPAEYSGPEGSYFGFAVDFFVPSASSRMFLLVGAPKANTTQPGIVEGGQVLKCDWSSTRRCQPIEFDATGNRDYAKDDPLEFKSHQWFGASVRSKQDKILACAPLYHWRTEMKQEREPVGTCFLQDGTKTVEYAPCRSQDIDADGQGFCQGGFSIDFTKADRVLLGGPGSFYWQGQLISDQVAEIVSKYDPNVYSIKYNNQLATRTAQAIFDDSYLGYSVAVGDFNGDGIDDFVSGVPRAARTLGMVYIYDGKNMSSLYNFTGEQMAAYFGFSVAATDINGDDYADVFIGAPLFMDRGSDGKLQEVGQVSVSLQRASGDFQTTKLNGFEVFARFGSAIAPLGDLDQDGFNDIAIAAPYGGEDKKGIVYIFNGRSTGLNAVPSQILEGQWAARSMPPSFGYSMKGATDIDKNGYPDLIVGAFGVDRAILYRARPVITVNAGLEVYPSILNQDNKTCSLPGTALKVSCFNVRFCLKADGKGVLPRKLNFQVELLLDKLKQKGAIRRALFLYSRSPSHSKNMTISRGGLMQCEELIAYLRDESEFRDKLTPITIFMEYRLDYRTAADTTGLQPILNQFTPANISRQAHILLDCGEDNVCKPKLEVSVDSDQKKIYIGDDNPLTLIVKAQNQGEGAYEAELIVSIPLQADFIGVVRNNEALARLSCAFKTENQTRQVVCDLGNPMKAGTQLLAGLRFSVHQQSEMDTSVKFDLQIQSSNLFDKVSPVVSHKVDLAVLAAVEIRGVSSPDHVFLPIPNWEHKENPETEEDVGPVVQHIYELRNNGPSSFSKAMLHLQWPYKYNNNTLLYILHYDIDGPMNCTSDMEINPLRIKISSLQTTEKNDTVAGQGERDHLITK

IC50 (Integrin alpha-V/beta-3 [1]): 25.1 nM
IC50 (Integrin alpha-V/beta-3 [2]): 1.1 nM
Structure (SMILES): N=C(N)Nc1cccc(C(=O)NCC(=O)NC(CC(=O)O)c2cc(Cl)cc(Cl)c2)c1 (configuration not stated)

From ChEMBL document CHEMBL3351497, “Structure Activity Relationships of αv Integrin Antagonists for Pulmonary Fibrosis by Variation in Aryl Substituents” (ACS Med Chem Lett, 2014)
